ChEMBL document CHEMBL2203161 (Bioorg Med Chem, 2012)

Target: T1, Probable linoleate 9S-lipoxygenase 5 (Solanum tuberosum, UniProt Q43191)
T1 sequence (Q43191 whole entry): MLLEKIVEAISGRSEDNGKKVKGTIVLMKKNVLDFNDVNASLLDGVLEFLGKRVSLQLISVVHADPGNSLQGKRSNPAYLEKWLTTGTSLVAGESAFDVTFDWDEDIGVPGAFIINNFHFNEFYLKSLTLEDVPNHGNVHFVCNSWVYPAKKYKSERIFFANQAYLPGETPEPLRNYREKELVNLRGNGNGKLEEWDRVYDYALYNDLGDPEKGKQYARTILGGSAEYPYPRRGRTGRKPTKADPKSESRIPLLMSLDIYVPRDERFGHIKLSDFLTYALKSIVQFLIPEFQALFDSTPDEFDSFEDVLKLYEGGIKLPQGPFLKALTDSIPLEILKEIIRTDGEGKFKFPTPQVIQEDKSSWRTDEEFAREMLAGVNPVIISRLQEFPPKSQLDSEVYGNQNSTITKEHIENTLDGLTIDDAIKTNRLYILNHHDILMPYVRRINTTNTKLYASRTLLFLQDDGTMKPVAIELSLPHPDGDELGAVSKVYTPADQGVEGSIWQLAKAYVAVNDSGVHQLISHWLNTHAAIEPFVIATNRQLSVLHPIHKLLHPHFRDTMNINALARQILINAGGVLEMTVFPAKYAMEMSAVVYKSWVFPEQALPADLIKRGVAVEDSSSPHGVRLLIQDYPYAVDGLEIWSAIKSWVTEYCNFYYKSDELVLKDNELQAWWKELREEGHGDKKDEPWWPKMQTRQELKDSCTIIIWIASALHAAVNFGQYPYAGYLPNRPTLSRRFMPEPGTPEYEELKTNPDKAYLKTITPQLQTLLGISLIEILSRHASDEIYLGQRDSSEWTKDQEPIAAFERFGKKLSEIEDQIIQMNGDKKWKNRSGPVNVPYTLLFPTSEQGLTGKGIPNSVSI
Test: Inhibition of potato 5-lipoxygenase assessed as residual activity preincubated for 10 mins measured by real-time spectrophotometric analysis
Procedure, shortened: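 Single-concentration screen against soybean LOX-1 and potato 5-LOX. Enzyme preincubated 10 min with 50 µM compound. Formation of conjugated diene 13-HPOD from linoleic acid followed spectrophotometrically in real time. Residual activity given as percent of blank without inhibitor. Average of three independent experiments with standard deviations.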

Structure (SMILES): CCCCCCCCCCCCCCCc1cccc(O)c1C(=O)O [ANACARDIC ACID]
- IC50: 43 µM
